The values that follow come from PMC10166890, “Screening for DAX1/EWS‐FLI1 functional inhibitors identified dihydroorotate dehydrogenase as a therapeutic target for Ewing's sarcoma” (Cancer Medicine, 2023).

Chains of the proteins cited; added tags and fusions are not shown.
UniProt Q02127, whole entry: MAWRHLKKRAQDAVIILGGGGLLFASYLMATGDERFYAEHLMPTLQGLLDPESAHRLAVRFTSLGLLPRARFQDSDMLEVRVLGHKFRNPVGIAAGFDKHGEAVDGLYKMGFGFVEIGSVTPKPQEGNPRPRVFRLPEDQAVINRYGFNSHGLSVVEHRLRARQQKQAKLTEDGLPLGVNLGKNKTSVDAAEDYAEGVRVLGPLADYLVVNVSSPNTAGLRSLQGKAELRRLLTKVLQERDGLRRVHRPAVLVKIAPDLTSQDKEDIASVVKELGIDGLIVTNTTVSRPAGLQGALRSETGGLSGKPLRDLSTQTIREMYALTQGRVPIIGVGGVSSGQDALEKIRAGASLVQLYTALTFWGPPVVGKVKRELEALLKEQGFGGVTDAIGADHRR

SMILES strings stand for the structures.

Assay [1] deals with DAX1. Kind of assay: DAX1 reporter assay (KJMGER8/pAGal9p4‐hDAX1 cells, luciferase). Type of assay: cell-based, human. As to conditions: read-out: DAX1 reporter IC50; Table S3. The method, then:
pAGal9‐hDAX1 and pAPPRE×10‐Luc + were transfected into KJMGER8 cells by electroporation using a Gene Pulser (Bio‐Rad Laboratories, Hercules, CA, USA), and clones stably expressing the DAX1 and luciferase reporter genes under the control of PPRE were selected. The obtained clone was termed KJMGER8/pAGal9p4‐hDAX1. KJMGER8/pAGal9p4‐hDAX1 cells (1.8 × 10^4 cells/well) were seeded in 384‐well white plates (Greiner Japan, Tokyo, Japan) and cultured in RPMI1640‐IPTSG medium containing 10 nM 17β‐estradiol (E2; Sigma‐Aldrich), dissolved in ethanol, with test compounds at concentration ranges of 0.01 to 10,000 nM or vehicle (dimethyl sulfoxide [DMSO]). The final DMSO concentration was ≤0.3%, and the ethanol concentration was 0.1%. […] The luciferase activity was measured using a TopCount NXT system (PerkinElmer, Waltham, MA, USA). IC50 values were calculated using XLfit version 4 (ID Business Solutions, Surrey, UK). […]
pAGal9-hDAX1 and pAPPRE×10-Luc+ were transfected into KJMGER8 cells by electroporation using a Gene Pulser (Bio-Rad Laboratories, Hercules, CA, USA), and clones stably expressing the DAX1 and luciferase reporter genes under the control of PPRE were selected. […] The luciferase activity was measured using a TopCount NXT system (PerkinElmer, Waltham, MA, USA). IC50 values were calculated using XLfit version 4 (ID Business Solutions, Surrey, UK)

The subject of assay [2] is A‐673 cells. Kind of assay: Cell viability assay (XTT), A‐673 cells.
Assay [3] has as its system TC‐71 cells. Briefly: Cell viability assay (XTT), TC‐71 cells. As to conditions: 72 h.
In assay [4] the target is DHODH (Homo sapiens, UniProt Q02127). Kind of assay: DHODH inhibition assay, A‐673 mitochondria fraction (orotic acid production, LCMSMS). The format is biochemical. As to conditions: read-out: DHODH IC50, Table S3.

As to `O=S(=O)(Oc1ccc(NCc2ccccc2)cc1)c1ccc(-c2ccc(F)cc2)nc1`, the values for the IC50 in assay [1] and in assay [4] were 437 nM and 25.2 nM, respectively. In assay [2] (72 h), the “Cell viability of A‐673 cells” value is “decreased the viability”. In addition, in assay [2] (read-out: A673 GI50, 50% growth inhibition concentration, A‐673 cells), the 50% growth inhibitory concentration (GI50) stood at 247 nM. Further, the “Cell viability of TC‐71 cells” value in assay [3] is “decreased the viability”.
